From patent US20120270819A1, “USE OF COMPOUNDS WITH SGLT-1/SGLT-2 INHIBITOR ACTIVITY FOR PRODUCING MEDICAMENTS FOR TREATMENT OF BONE DISEASE” (SANOFI, priority 2009, published 2012)

Chains of the proteins cited; added tags and fusions are not shown.
UniProt P11170, whole entry: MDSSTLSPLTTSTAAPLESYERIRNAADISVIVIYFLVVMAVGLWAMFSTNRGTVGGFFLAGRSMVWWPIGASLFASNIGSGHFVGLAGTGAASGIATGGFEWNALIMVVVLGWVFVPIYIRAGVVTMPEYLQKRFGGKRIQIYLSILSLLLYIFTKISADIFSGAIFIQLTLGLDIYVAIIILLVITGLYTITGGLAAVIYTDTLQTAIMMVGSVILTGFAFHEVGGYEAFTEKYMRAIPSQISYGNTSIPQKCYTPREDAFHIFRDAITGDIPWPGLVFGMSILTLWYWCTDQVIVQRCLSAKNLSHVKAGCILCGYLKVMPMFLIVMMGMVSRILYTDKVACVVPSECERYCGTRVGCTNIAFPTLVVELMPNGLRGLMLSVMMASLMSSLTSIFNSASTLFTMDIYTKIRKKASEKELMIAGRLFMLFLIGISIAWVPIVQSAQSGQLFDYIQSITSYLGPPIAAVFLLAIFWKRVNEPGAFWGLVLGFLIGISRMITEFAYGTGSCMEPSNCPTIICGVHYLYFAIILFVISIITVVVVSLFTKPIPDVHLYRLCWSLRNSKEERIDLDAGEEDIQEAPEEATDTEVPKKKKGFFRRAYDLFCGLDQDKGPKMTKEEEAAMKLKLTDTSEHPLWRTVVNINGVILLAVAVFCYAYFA

Each molecule was assayed against SGLT Brush Border Membrane (Oryctolagus cuniculus, UniProt P11170) (assay: Glucose uptake by brush border membrane vesicles (transport assay)). Details: read-out: IC50 SGLT Brush Border Membrane; examples of Formula III; rabbit small intestine vesicles.
Assay type: biochemical

pIC50	SMILES
6.30	COc1ccc(Cc2ccccc2O[C@@H]2O[C@H](CO)[C@@H](F)[C@H](O)[C@H]2O)cc1
6.15	OC[C@H]1O[C@@H](Oc2ccccc2Cc2ccccc2)[C@H](O)[C@@H](O)[C@@H]1F
6.40	Cc1cc(O)c(C(=O)CCc2ccc3occc3c2)c(O[C@@H]2O[C@H](CO)[C@H](F)[C@H](O)[C@H]2O)c1

pIC50: −log10 of the molar value.
